The target in one series is GLP-1 receptor (GLP1R) (Homo sapiens, UniProt P43220). The series can be described thus: cAMP Hunter agonist assay (DiscoveRx HitHunter cAMP XS+), GLP1R cells. As to conditions: for Emax: read-out: Max Response; for Curve Bottom / Curve Top / Hill: cAMP, Agonist, GLP1R; for Curve Bottom / Curve Top: % Activity scale; for Hill: dose curve fit. Format: cell-based. On the procedure: (§1) Once it was established that the cells were healthy and growing normally, cells were passaged from flasks using cell dissociation reagent buffer and seeded into white walled clear bottom 384-well microplates for compound profiling. For profiling, cells were seeded at a density of 10,000 cells per well in a total volume of 20 μL and were allowed to adhere and recover overnight prior to compound addition. cAMP modulation was determined using the DiscoveRx HitHunter cAMP XS+ assay.
(§2) For profiling compound in agonist mode, the cells were incubated in the presence of compound at 37° C. for 30 minutes. […] After appropriate compound incubation, assay signal was generated through incubation with DiscoverX lysis cocktail according to the manufacturers standard protocol. Dose curves were plotted using GraphPad Prism or Activity Base. Percentage activity is calculated using the following formula: % Activity=100%×(mean RLU of test sample−mean RLU of vehicle control)/(mean RLU of MAX control−mean RLU of vehicle control).

By UniProt entry, the sequences of proteins in these tests, tags left out. Residues count along the entry.
UniProt P43220, 24-463: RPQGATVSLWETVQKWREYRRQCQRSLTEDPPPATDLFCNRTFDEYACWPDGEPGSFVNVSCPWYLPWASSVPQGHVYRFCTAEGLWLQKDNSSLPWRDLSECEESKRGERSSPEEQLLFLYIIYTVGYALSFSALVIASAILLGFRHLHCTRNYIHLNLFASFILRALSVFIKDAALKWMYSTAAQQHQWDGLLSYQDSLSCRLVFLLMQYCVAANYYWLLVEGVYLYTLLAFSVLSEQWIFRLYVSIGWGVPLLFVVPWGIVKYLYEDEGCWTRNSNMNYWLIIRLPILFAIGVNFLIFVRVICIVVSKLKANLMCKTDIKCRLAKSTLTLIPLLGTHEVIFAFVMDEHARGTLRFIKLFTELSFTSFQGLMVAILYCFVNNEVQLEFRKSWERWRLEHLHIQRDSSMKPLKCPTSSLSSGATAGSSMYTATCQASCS

The target of a further series is T1, GIP receptor (GIPR) (Homo sapiens, UniProt P48546).
T1 sequence (P48546 22-466): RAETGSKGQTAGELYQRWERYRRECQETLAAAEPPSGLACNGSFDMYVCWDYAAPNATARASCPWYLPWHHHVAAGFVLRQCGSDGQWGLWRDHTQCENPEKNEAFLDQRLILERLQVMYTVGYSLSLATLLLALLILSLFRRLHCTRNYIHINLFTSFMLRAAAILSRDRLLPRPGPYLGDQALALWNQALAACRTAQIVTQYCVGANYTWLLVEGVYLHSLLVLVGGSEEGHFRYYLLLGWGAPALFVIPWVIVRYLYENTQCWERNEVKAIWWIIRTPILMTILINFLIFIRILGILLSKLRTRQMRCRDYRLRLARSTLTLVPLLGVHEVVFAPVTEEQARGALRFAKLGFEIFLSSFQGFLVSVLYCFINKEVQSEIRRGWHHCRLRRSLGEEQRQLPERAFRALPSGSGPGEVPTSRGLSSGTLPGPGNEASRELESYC
Nature of the series: cAMP Hunter agonist assay (DiscoveRx HitHunter cAMP XS+), GIPR cells. Format: cell-based. As to conditions: for Emax: read-out: Max Response; for Curve Bottom / Curve Top / Hill: cAMP, Agonist, GIPR; for Curve Bottom / Curve Top: % Activity scale; for Hill: dose curve fit. The method, then: as §1, §2

Series [1] is described as follows: Stability in human liver microsomes. The method, then: Human liver microsomes were prepared by Absorption Systems. A reaction mixture, minus NADPH, was prepared as described below. […] In parallel, a […]. The test compound was added into the reaction mixture (0.5 mg/mL human liver microsomes; 100 mM potassium phosphate; 5 mM Magnesium chloride) at a final concentration of 1 μM. An aliquot of the reaction mixture (without cofactor) was incubated in a shaking water bath at 37° C. for 3 minutes. […] The samples were then mixed and centrifuged to precipitate microsomal proteins. […] A thermo BDS Hypersil C18 column (30×2.0 mm; 3 μm) was used for chromatography at 300 μL/minute with an aqueous reservoir of 90% water and 10% buffer and an organic reservoir of 90% acetonitrile with 10% buffer (each 25 mM ammonium formate buffer at pH of 3.5). Test compound samples were analyzed by orbitrap. The peak area response ratio to internal standard (PARR) of the compounds at 10, 20, 30, and 60 minutes was compared to the PARR at time 0 to determine the percent of test compound remaining at each timepoint. After the final time point, fluorimetry is used to confirm the addition of NADPH to the reaction mixture. Half-life was normalized of control using internal acceptance criteria.
The mass spectrometry measurements of compound were taken at 0, 10, 20, 30, and 60 minutes after incubation of the compound with human liver microsomes at […] in solution at 37° C.
Intrinsic clearance (CLint) was calculated based upon CLint=k/P, where k is the elimination rate constant and P is the protein concentration in the incubation.
A general note: Liver microsomes are a subcellular fraction often used to study metabolism.

A short description of series [2]: Stability in human plasma. It is filed as in vitro ADME. The method, then:
Studies of the 2010 peptide were carried out in human plasma. All plasma was obtained from Bioreclamation and collected on sodium heparin. DMSO stocks were first prepared for the test compounds. Aliquots of the DMSO solutions were dosed into 1 mL of plasma, which had been pre-warmed to 37° C., at a final test compound concentration of 1 μM. The vials were kept in a benchtop Thermomixer® for the duration of the experiment. Aliquots (100 μL) were taken at each timepoint (0, 15, 30, 60, and 120 minutes) and added to 96-well plates which had been pre-filled with 300 μL of acetonitrile. Samples were stored at 4° C. until the end of the experiment. After the final timepoint was sampled, the plate was mixed and then centrifuged at 3,000 rpm for 10 minutes. Aliquots of the supernatant were removed, diluted 1:1 into distilled water, and analyzed by LC-MS/MS.
Below is a table of data describing the stability of compounds exposed to human plasma with aliquot of compound dissolved in DMSO solution at 37° C. The pH of the plasma solution was adjusted to 7.4 and single replicants of aliquot were taken at 0, 15, 30, 60 and 120 minutes. LC-MS/MS was used to determine the percent mass of compound remaining in solution (% remaining).

Structures are written as SMILES.

Usually microsomal CLint stands for the capacity of the preparation to metabolise the compound, expressed as a volume cleared per time. Higher therefore signals faster metabolism.

Take `CC[C@H](C)[C@@H](CC(=O)N[C@@H](Cc1ccc(O)cc1)C(=O)N[C@@H](CC(C)C)C(=O)N[C@@H](CC(=O)O)CC(=O)N[C@@H](CCCCN)C(=O)N[C@@H](CCC(N)=O)C(=O)N[C@@H](C)C(=O)N[C@@H](C)CC(=O)NC(C)(C)C(=O)N[C@@H](CCC(=O)O)C(=O)N[C@H](CC(=O)N[C@H](C(=O)N[C@@H](CC(N)=O)C(=O)N[C@@H](Cc1c[nH]c2ccccc12)C(=O)N[C@H](CC(=O)N[C@@H](CC(C)C)C(=O)N[C@@H](C)C(=O)NCCC(=O)O)CC(C)C)C(C)C)Cc1ccccc1)NC(=O)[C@H](CO)NC(=O)[C@H](Cc1ccc(O)cc1)NC(=O)[C@H](CC(=O)O)NC(=O)[C@H](CO)NC(=O)[C@@H](NC(=O)[C@H](Cc1ccccc1)NC(=O)[C@@H](NC(=O)CNC(=O)[C@H](CCC(=O)O)NC(=O)C(C)(C)NC(=O)[C@@H](N)Cc1ccc(O)cc1)[C@@H](C)O)[C@@H](C)O` [compound 2004, YBEGT FTSDY SIYLD KQAAB EFVNW LLAG]: the results for the Emax on GLP-1 receptor (GLP1R) and on GIP receptor (GIPR) were 2.68% and 99.1%, respectively.

On to `CC[C@H](C)[C@H](NC(=O)[C@H](CO)NC(=O)[C@H](Cc1ccc(O)cc1)NC(=O)[C@H](CC(=O)O)NC(=O)[C@H](CO)NC(=O)[C@@H](NC(=O)[C@H](Cc1ccccc1)NC(=O)[C@@H](NC(=O)CNC(=O)[C@H](CCC(=O)O)NC(=O)C(C)(C)NC(=O)[C@@H](N)Cc1ccc(O)cc1)[C@@H](C)O)[C@@H](C)O)C(=O)N[C@@H](Cc1ccc(O)cc1)C(=O)N[C@@H](CC(C)C)C(=O)N[C@@H](CC(=O)O)C(=O)N[C@H]1CNC[C@@H]1C(=O)N[C@@H](CCC(N)=O)C(=O)N[C@@H](C)C(=O)N[C@H]1CCC[C@@H]1C(=O)NC(C)(C)C(=O)N[C@@H](CCC(=O)O)C(=O)N[C@@H](Cc1ccccc1)C(=O)N[C@H]1CCC[C@@H]1C(=O)N[C@@H](CC(N)=O)C(=O)N[C@@H](Cc1c[nH]c2ccccc12)C(=O)N[C@H]1CCC[C@@H]1C(=O)N[C@@H](CC(C)C)C(=O)N[C@@H](C)C(=O)NCC(N)=O` [compound 2008, YBEGT FTSDY SIYLD ZQAXB EFXNW XLAG], for which, at GLP-1 receptor (GLP1R), the “Curve Bottom” value came out at 0.9, the “Curve Top” value worked out at 84.4, the Hill came to 3.47 and the Emax was 84.5%. Moreover, at GIP receptor (GIPR), the “Curve Bottom” value is listed as −0.6, the “Curve Top” value was 82.8, the Hill came to 2.32 and the Emax stood at 82.2%.

Regarding `CC[C@H](C)[C@H](NC(=O)[C@H](CO)NC(=O)[C@H](Cc1ccc(O)cc1)NC(=O)[C@H](CC(=O)O)NC(=O)[C@H](CO)NC(=O)[C@@H](NC(=O)[C@H](Cc1ccccc1)NC(=O)[C@@H](NC(=O)CNC(=O)[C@H](CCC(=O)O)NC(=O)C(C)(C)NC(=O)[C@@H](N)Cc1ccc(O)cc1)[C@@H](C)O)[C@@H](C)O)C(=O)N[C@@H](Cc1ccc(O)cc1)C(=O)N[C@H](CC(=O)N[C@@H](CC(=O)O)C(=O)N[C@@H](CCCCN)C(=O)N[C@@H](CCC(N)=O)CC(=O)N[C@@H](C)C(=O)N[C@@H](C)C(=O)NC(C)(C)C(=O)N[C@@H](CCC(=O)O)CC(=O)N[C@@H](Cc1ccccc1)C(=O)N[C@H](C(=O)N[C@@H](CC(N)=O)CC(=O)N[C@@H](Cc1c[nH]c2ccccc12)C(=O)N[C@@H](CC(C)C)C(=O)N[C@@H](CC(C)C)C(=O)N[C@@H](C)CC(=O)NCC(=O)O)C(C)C)CC(C)C` [compound 2005, YBEGT FTSDY SIYLD KQAAB EFVNW LLAG], the Emax on GLP-1 receptor (GLP1R) amounted to 95.7%; on GIP receptor (GIPR), 99.2%.

Turning to `CC[C@H](C)[C@@H](CC(=O)N[C@@H](Cc1ccc(O)cc1)C(=O)N[C@@H](CC(C)C)C(=O)N[C@@H](CC(=O)O)C(=O)N[C@@H](CCCCN)CC(=O)N[C@@H](CCC(N)=O)C(=O)N[C@@H](C)C(=O)N[C@@H](C)CC(=O)NC(C)(C)C(=O)N[C@@H](CCC(=O)O)C(=O)N[C@@H](Cc1ccccc1)C(=O)N[C@H](CC(=O)N[C@@H](CC(N)=O)C(=O)N[C@@H](Cc1c[nH]c2ccccc12)C(=O)N[C@H](CC(=O)N[C@@H](CC(C)C)C(=O)N[C@@H](C)C(=O)NCC(=O)O)CC(C)C)C(C)C)NC(=O)[C@H](CO)NC(=O)[C@H](Cc1ccc(O)cc1)NC(=O)[C@H](CC(=O)O)NC(=O)[C@H](CO)NC(=O)[C@@H](NC(=O)[C@H](Cc1ccccc1)NC(=O)[C@@H](NC(=O)CNC(=O)[C@H](CCC(=O)O)NC(=O)C(C)(C)NC(=O)[C@@H](N)Cc1ccc(O)cc1)[C@@H](C)O)[C@@H](C)O` [compound 2001, YBEGT FTSDY SIYLD KQAAB EFVNW LLAG], the Emax at GLP-1 receptor (GLP1R) amounted to 36.7%; at GIP receptor (GIPR) it was 16.5%.

Take `CC[C@H](C)[C@H](NC(=O)[C@H](CO)NC(=O)[C@H](Cc1ccc(O)cc1)NC(=O)[C@H](CC(=O)O)NC(=O)[C@H](CO)NC(=O)[C@@H](NC(=O)[C@H](Cc1ccccc1)NC(=O)[C@@H](NC(=O)CNC(=O)[C@H](CCC(=O)O)NC(=O)C(C)(C)NC(=O)[C@@H](N)Cc1ccc(O)cc1)[C@@H](C)O)[C@@H](C)O)C(=O)N[C@@H](Cc1ccc(O)cc1)C(=O)N[C@@H](CC(C)C)C(=O)N[C@@H](CC(=O)O)C(=O)N[C@@H](CCCCN)C(=O)N[C@H]1CCC[C@@H]1C(=O)N[C@@H](C)C(=O)N[C@@H](C)C(=O)NC(C)(C)C(=O)N[C@H]1CCC[C@@H]1C(=O)N[C@@H](Cc1ccccc1)C(=O)N[C@H](C(=O)N[C@H]1CNC[C@@H]1C(=O)N[C@@H](Cc1c[nH]c2ccccc12)C(=O)N[C@@H](CC(C)C)C(=O)N[C@@H](CC(C)C)C(=O)N[C@H]1CCC[C@@H]1C(=O)NCC(N)=O)C(C)C` [compound 2010, YBEGT FTSDY SIYLD KXAAB XFVZW LLXG]: on GLP-1 receptor (GLP1R), the “Curve Bottom” value came to 0.4, the “Curve Top” value came to 82.4, the Hill is reported as 2.9 and the Emax came to 82.1%. In addition, at GIP receptor (GIPR), the “Curve Bottom” value is given as −0.3, the “Curve Top” value is on record as 85.5, the Hill came out at 1.59 and the Emax turned out to be 96.9%. For the same compound, the “% of mass remaining in solution” value in series [1] (0 mins., 0.5 mg/mL human liver microsomes, 1 μM, 1 mM NADPH, 37° C.) worked out at 100%. In addition, in series [1] (human, microsomes), the half-life is > 1 h; the microsomal CLint is 11 µL/min/mg; the amount remaining at 10 min, 1 μM is 98%; the fraction remaining at 20 min, 1 μM was 95%. Moreover, in series [1] (human, microsomes), the share remaining at 0.5 h, 1 μM worked out at 87% and the amount remaining at 1 h, 1 μM came out at 73%. Further, in series [2] (0 mins., 1 μM, 37° C., pH 7.4), the “% of mass remaining in solution” value came to 100%. Further, the share remaining at 0.25 h, 1 μM in series [2] (plasma (sodium heparin), 15 mins., 1 μM, 37° C., pH 7.4, read-out: % of mass remaining in solution) turned out to be 96%. Also, the fraction remaining at 0.5 h, 1 μM in series [2] (plasma (sodium heparin), 30 mins., 1 μM, 37° C., pH 7.4, read-out: % of mass remaining in solution) was found to be 103%. In series [2] (plasma (sodium heparin), 60 mins., 1 μM, 37° C., pH 7.4, read-out: % of mass remaining in solution), the share remaining at 1 h, 1 μM was 99%. Also, the amount remaining at 2 h, 1 μM in series [2] (plasma (sodium heparin), 120 mins., 1 μM, 37° C., pH 7.4, read-out: % of mass remaining in solution) turned out to be 97%. Also, the half-life in series [2] (read-out: serum-half lives) was > 2 h.

(Values after patent publication US9790262B2, “Compositions comprising glucagon analogs and methods of making and using the same” (LONGEVITY BIOTECH, INC., priority 2011, dated 2017).)
